Laboratory results published in publication PMC11348464.

By UniProt entry, the sequences of proteins in these tests, tags left out. Where a name states a change or a piece, a line headed by the entry shows the natural chain unless it says otherwise. Residues count along the entry.
UniProt Q09472, 2-2414 limits assumed: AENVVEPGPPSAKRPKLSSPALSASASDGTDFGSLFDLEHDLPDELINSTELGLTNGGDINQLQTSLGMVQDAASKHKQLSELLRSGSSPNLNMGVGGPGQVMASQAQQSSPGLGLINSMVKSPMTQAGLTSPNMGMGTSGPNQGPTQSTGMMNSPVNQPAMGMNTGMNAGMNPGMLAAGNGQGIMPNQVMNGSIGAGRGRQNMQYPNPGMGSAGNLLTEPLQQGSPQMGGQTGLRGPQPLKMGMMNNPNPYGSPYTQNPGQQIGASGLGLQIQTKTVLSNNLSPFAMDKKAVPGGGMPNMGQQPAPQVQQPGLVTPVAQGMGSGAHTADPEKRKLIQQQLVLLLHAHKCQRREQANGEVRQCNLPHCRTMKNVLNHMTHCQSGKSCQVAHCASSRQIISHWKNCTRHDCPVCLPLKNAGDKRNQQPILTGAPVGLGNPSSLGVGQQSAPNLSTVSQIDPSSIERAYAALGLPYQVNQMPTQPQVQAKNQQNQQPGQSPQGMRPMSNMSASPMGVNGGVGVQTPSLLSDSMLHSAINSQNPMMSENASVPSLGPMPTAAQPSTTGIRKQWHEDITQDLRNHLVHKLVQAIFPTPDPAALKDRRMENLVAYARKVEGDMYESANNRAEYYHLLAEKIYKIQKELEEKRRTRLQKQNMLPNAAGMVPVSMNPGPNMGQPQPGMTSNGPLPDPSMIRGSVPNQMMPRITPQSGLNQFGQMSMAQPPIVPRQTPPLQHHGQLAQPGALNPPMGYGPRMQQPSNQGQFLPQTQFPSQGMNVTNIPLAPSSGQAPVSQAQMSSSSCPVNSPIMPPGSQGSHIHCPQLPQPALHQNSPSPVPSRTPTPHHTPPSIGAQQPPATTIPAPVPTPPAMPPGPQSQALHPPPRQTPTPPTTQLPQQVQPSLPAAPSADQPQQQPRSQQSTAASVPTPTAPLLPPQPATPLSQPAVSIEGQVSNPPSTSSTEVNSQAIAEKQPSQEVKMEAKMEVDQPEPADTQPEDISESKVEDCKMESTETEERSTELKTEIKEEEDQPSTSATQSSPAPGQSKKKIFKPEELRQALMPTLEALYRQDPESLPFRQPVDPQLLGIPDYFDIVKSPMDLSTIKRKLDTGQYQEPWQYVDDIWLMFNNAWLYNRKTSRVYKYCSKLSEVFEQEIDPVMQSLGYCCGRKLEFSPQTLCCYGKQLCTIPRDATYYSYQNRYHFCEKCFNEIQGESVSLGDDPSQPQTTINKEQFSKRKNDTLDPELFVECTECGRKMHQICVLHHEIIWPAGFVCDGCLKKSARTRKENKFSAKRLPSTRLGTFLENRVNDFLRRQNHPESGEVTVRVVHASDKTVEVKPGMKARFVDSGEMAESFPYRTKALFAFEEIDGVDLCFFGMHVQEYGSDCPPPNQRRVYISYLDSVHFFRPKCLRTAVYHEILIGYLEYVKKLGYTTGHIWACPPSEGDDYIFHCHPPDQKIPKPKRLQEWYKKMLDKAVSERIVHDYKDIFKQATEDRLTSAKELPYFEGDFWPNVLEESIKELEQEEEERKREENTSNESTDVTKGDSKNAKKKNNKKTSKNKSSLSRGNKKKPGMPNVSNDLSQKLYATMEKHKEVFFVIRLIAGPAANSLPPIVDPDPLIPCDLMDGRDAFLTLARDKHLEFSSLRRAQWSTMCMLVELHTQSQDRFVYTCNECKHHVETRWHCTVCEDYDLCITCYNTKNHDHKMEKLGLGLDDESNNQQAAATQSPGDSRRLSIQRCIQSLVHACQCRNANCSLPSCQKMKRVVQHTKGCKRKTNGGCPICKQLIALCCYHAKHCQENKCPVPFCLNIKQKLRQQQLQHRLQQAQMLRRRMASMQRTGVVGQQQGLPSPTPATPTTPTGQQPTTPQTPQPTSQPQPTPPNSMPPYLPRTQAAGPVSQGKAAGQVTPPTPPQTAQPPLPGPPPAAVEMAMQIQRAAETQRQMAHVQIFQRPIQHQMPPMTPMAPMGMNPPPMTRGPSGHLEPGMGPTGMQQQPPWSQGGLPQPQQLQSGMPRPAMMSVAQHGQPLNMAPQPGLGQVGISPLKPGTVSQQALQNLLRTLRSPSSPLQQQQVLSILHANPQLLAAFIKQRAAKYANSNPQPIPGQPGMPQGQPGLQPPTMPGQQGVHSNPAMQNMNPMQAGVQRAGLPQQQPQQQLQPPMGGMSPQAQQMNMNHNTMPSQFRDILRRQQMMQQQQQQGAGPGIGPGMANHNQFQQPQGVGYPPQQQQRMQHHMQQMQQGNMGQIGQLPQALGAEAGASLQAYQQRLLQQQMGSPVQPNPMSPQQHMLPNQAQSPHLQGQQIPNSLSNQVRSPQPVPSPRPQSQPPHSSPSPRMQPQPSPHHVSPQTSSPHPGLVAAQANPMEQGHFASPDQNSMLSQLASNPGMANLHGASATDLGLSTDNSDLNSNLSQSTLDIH

Target: EP300 (E1A binding protein p300) (Homo sapiens, UniProt Q09472)
Test: TR-FRET assay kit with tetra-acetylated biotinylated H4 peptide and EP300, dose-response

O=C1NC(=O)C(=Cc2ccccc2OCc2cccc(F)c2)N1 showed an IC50 of 5.89 µM.

CCOC(=O)c1c(C)[nH]c(C(=O)CSc2cc(C)c3ccc(OC)cc3n2)c1C showed an IC50 of 53.6 µM.
